Assay results from ChEMBL document CHEMBL5058646 (2022).

Chains of the proteins cited; added tags and fusions are not shown. Lines headed by an entry give the natural chain unless they say otherwise; changes in a name come on top.
UniProt Q99640: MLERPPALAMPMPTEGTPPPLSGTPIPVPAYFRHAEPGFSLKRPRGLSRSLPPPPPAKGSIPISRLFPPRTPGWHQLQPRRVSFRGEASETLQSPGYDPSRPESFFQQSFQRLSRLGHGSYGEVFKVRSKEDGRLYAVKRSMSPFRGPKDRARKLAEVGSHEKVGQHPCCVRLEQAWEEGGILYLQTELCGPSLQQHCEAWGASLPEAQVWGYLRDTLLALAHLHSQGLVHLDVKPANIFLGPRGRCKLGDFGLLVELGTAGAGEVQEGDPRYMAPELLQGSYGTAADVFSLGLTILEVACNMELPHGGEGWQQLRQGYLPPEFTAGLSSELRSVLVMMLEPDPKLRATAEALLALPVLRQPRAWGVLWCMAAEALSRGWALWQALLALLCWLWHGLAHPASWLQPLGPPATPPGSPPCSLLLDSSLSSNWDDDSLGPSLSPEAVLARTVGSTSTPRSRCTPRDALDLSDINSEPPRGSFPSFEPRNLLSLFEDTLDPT

Key:
[1] = molecular target: Membrane-associated tyrosine- and threonine-specific cdc2-inhibitory kinase (Homo sapiens) (UniProt Q99640); details: Compound concentration 20.0 uM
[2] = molecular target: T1, Myoneurin (Homo sapiens) (UniProt Q9NPC7); details: SUD4
T1 sequence (whole entry): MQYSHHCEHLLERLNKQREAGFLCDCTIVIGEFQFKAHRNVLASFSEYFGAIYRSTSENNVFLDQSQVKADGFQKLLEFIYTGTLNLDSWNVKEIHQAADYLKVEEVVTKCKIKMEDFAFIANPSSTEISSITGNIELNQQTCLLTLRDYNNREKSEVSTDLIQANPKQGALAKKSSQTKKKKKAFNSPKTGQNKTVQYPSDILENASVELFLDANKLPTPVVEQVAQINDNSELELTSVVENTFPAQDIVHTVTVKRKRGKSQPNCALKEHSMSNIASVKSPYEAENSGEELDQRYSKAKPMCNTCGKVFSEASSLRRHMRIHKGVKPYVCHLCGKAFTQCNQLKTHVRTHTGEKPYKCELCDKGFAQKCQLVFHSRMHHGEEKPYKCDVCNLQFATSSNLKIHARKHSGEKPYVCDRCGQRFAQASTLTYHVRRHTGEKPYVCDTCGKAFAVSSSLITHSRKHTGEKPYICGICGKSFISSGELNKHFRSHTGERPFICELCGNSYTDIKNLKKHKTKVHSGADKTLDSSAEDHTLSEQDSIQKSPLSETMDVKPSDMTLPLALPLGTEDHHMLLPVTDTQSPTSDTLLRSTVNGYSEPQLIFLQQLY

Structure (SMILES): C[C@@H]1CN(c2ncc(Cl)c(Nc3ccc4c(c3)n(CCC(C)(C)O)c(=O)n4C)n2)C[C@H](C)C1(F)F
- Tm [1]: 49 °C
- Normalized abundances for DMSO [2]: 122
- Normalized abundances for compound [2]: 111
